Assay [1] has as its target eZiPro: ZIKV NS2B-NS3 protease, self-cleaved at the NS2B/NS3 junction (NS2B 45-96 joined to K126-R130, and NS3 1-177) (Zika virus).
Assay [2] concerns the target bZiPro: unlinked ZIKV NS2B-NS3 protease of two separate polypeptides, NS2B 45-96 and NS3 1-177 (Zika virus).
The target of assay [3] is gZiPro: single-chain ZIKV NS2B-NS3 protease with a G4SG4 linker between NS2B 45-96 and NS3 1-177 (Zika virus).

As to “BPTI (from UniProt P00974 36-93) (natural protein)”, the IC50 of BPTI for inhibition of protease activity (cleavage of Bz-nKRR-AMC, 5 nM enzyme, 150 μM substrate, 37 °C) in assay [1] is 350 nM; in assay [2], 12 nM; in assay [3], 76 nM.

Source of the values: publication PMC5116066.
